Experimental data reported in ChEMBL document CHEMBL1148750, “Discovery of novel benzimidazoles as potent inhibitors of TIE-2 and VEGFR-2 tyrosine kinase receptors” (J Med Chem, 2007).
pIC50: −log10 of the molar value.

Chains of the proteins cited; added tags and fusions are not shown.
UniProt P35968, whole entry: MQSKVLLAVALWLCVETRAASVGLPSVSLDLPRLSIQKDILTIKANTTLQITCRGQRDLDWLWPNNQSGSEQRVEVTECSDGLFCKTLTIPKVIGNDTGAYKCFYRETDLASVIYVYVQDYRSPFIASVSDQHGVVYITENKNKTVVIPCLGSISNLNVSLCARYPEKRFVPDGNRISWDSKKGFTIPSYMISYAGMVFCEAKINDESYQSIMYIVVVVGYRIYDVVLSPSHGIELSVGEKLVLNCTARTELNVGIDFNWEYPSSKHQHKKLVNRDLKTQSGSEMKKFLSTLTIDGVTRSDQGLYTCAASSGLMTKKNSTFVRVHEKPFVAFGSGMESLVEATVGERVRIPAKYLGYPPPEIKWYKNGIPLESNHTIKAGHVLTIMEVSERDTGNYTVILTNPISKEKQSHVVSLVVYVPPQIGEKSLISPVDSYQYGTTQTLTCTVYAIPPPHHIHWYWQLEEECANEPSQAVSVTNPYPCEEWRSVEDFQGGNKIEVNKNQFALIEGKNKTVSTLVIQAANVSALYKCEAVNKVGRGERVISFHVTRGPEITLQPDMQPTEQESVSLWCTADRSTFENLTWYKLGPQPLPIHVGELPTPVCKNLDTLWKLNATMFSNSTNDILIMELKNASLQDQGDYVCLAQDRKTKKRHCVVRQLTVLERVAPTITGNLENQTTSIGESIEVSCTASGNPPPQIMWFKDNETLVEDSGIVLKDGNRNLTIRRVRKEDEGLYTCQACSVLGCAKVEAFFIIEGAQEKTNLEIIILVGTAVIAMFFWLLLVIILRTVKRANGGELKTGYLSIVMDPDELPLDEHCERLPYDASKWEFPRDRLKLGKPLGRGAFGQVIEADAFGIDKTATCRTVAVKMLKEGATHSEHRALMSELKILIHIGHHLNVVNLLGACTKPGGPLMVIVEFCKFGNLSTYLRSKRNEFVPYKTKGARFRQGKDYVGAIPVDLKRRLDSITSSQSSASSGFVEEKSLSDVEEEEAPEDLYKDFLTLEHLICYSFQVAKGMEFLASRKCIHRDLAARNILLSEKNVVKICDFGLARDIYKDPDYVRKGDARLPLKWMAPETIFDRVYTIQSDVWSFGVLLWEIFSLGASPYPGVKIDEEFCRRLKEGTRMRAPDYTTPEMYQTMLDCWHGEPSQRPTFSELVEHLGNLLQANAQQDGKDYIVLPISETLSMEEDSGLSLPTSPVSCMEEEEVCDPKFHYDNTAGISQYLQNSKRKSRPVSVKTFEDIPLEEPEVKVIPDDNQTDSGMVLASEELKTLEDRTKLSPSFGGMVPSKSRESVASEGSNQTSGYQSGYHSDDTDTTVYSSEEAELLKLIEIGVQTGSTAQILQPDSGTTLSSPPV

Target: Vascular endothelial growth factor receptor 2 (Homo sapiens, UniProt P35968)
Assay: Inhibition of GST-tagged human recombinant VEGFR2 expressed in baculovirus

pIC50: 8.46
SMILES: COC(=O)Nc1nc2ccc(Oc3ccc(NC(=O)Nc4cc(C(F)(F)F)ccc4F)cc3)cc2[nH]1
